# logP (octanol/water) values, as collected for the OPERA models

Values as listed in the OPERA 2.9 repository of K. Mansouri.

logP is the log10 of the octanol-water partition coefficient; higher is more lipophilic.

| structure (SMILES) | logP (octanol/water) |
|---|---|
| CCCCC(CC)COC(=O)/C=C(/C)C(=O)OCC(CC)CCCC (stereo partly drawn) | 7.63 |
| CC(=O)CC(C)(C)C1CCCCC1 | 4.36 |
| N[C@@H](Cc1ccc(O)c(I)c1)C(=O)O | -0.56 |
| Cc1ccc2oc(C=Cc3nc4cc(C)ccc4o3)nc2c1 | 3.91 |
| CCCCOc1cc(C(=O)OCCN(CC)CC)ccc1N | 3.1 |
| CCC(O)Cn1cnc2c(N)ncnc21 (stereo not given) | 0.14 |
| CCCC(=O)OCn1cnc2c(cnn2COC(=O)CCC)c1=O | 1.82 |
| O=C(CS)OCCOC(=O)CS | 1.33 |
| COc1cc2c(Nc3ccc(Br)cc3F)ncnc2cc1OCC1CCN(C)CC1 | 5 |
| CCCCCCCCC=CCCCCCCCCN(CCO)CCO | 3.4 |
| CCCCOC(=O)CCC | 2.16 |
| CCCCCCCCCCCC(=O)OC(C)C(=O)OC(C)C(=O)[O-].[Na+] (stereo not given) | 0.2 |
| C=C(C)C(=O)OCCOC(=O)c1c(CC(O)CCl)cccc1C(=O)O (stereo not given) | 2.28 |
| CC(=O)COc1c(C)cccc1C | 2.3 |
| O=S(=O)(O)c1cccc2cc(Nc3ccccc3)cc(Nc3ccccc3)c12 | 0.81 |
| CC1(C)CC(O)CC(C)(C)N1CCO | 0.5 |
| c1ccc2sc(SSc3nc4ccccc4s3)nc2c1 | 4.5 |
| CC(C)(C)c1nn(-c2cc(C(=O)O)cc(C(=O)O)c2)c(N)c1N=Nc1nnc(SCCSc2nnc(N=Nc3c(C(C)(C)C)nn(-c4cc(C(=O)O)cc(C(=O)O)c4)c3N)s2)s1 | -2.7 |
| CCCCCC[C@@H](O)C/C=C\CCCCCCCC(=O)NCCCN(C)C | 3.37 |
| COc1ccc(OC(=O)c2ccc(OCCCCC3CO3)cc2)cc1 (stereo not given) | 4 |
| CC(C)(N)CO.CCCCCCCCCCCCc1ccccc1S(=O)(=O)O | 0.17 |
| CC(C)N(c1nn(C)/c(=N\N=C2C=CC(=[N+](C)C)C=C2)s1)C(C)C.[Cl-].[Cl-].[Cl-].[Zn+2] | -0.399 |
| CCOC(=O)C(C)(C)Oc1ccc(Cl)cc1 | 3.3 |
| CC(C)=CCCC(C)CC#N (stereo not given) | 3.213 |
| Cc1cc(=O)oc2cc(OCC(=O)[O-])c(O)cc12.[Na+] | 1 |
| O=c1[nH]c2ccccc2c(=O)n1CCO | 0.6 |
| C=C(C)C(=O)NCCCN(C)C | 0.5 |
| CN(CCC#N)c1ccc(/C=C/C2=[N+](C)c3ccccc3C2(C)C)cc1.O=S(=O)([O-])O | -3.15 |
| Nc1nc(=O)c2nc(CNc3ccc(C(=O)N[C@@H](CCC(=O)O)C(=O)O)cc3)cnc2[nH]1 | -2.61 |
| Cc1cc(C(=C2C=CC(=N)C=C2)c2ccc(N)cc2)ccc1N.Cl | 1.36 |
| CCOC(=O)O[C@]1(C(=O)COC(=O)CC)CC[C@H]2[C@@H]3CCC4=CC(=O)C=C[C@]4(C)[C@H]3[C@@H](O)C[C@@]21C | 2.9 |
| CN(/N=C/C1=[N+](C)c2ccccc2C1(C)C)c1ccccc1.[Cl-] | 1.2 |
| COC(=O)[C@@]1(C)[C@H](C)C[C@H]2[C@@H]3CCC4=CC(=O)C=C[C@]4(C)[C@H]3[C@@H](O)C[C@@]21C | 4.2 |
| CC(=O)OCC=C(C)C | 2 |
| Cc1ccc(C(=O)Nc2ccc(S(=O)(=O)[O-])cc2)cc1[N+](=O)[O-].[Na+] | -1.94 |
| O=C(CC(=O)c1ccccc1)c1ccccc1 | 4.59 |
| Nc1ccc(F)cc1-c1ccc(Cl)c(Cl)c1 | 4.3 |
| CCN(CC)S(=O)(=O)c1ccc(OC)c(/N=N/c2cc(S(=O)(=O)[O-])c3ccccc3c2O)c1.[Na+] | -1.019 |
| CC(=O)Nc1ccc(F)cc1Br | 1.5 |
| C=CCCC(=O)Oc1ccccc1 | 2.76 |

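The OPERA project collected these measurements from public sources as training and test data for property models. The files give a single number for a compound and property, which may rest on several reports. How each value was measured is not recorded, so precision varies. Where a salt, mixture or single isomer is drawn, the source does not say that exactly this form was tested. Unmarked limits or estimates from the upstream databases cannot be ruled out.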